Laboratory results published in patent US7214771 (UNIVERSITY OF MEDICINE AND DENTISTRY OF NEW JERSEY, dated 2007).

Biological target: T1, RIα-associated zinc finger (RIAZ), in vitro-translated full length protein (human, UniProt Q9HBE1 1-687, [35S]methionine labeled)
T1 construct: Translated in vitro from RIAZ cDNA in pBluescript II SK(-); The cDNA was cloned from a human fetal brain library; also called in-vitro translated RIAZ protein
T1 sequence: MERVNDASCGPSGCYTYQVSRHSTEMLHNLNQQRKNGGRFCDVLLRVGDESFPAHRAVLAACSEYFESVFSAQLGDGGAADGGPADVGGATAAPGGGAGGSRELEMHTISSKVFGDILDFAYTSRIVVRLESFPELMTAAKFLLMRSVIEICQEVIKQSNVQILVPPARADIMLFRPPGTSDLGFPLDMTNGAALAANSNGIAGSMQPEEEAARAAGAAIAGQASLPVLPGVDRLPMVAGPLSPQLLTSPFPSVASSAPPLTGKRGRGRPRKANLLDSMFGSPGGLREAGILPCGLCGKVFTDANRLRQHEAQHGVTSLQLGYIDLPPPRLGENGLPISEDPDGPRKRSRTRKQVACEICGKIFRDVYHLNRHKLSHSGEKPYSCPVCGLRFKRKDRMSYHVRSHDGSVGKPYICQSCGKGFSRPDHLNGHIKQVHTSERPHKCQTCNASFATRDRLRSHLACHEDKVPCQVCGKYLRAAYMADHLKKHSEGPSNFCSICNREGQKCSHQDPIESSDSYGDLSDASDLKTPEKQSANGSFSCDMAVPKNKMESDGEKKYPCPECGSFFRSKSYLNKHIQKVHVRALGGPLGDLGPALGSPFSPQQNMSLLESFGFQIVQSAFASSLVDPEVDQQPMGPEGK
Experiment: GST pull down of [35S]methionine labeled RIAZ, SDS-PAGE and autoradiography

B1: GST (control) (other, UniProt P08515 1-218, looked up)
chain: MSPILGYWKIKGLVQPTRLLLEYLEEKYEEHLYERDEGDKWRNKKFELGLEFPNLPYYIDGDVKLTQSMAIIRYIADKHNMLGGCPKERAEISMLEGAVLDIRYGVSRIAYSKDFETLKVDFLSKLPEMLKMFEDRLCHKTYLNGDHVTHPDFMLYDALDVVLYMDPMCLDAFPKLVCFKKRIEAIPQIDKYLKSSKYIAWPLQGWQATFGGGDHPPK
notes: Immobilized on glutathione resin as the negative control
binding result: no binding
